Source: patent US12638439B2, “Method of using human spheroids for drug discovery” (AxoSim, Inc., priority 2019, dated 2026)
Counter-ions that a name gives are not always drawn.

The compounds below were run on RTT spheroids (assay: FLIPR spontaneous calcium oscillation assay of iPSC-derived cortical brain spheroids (SMART library screen)). Details: 298-compound SMART library on WT and RTT matured spheroids.
Format: cell-based, human
Excerpt: In one embodiment, the present disclosure provides human induced pluripotent stem cells iPScs that are subsequently differentiated into human cortical neurons comprising neurons and astrocytes in approximately a 50:50 ratio. The ratio can be adjusted on a case by case basis depending on the particular disease of interest from 1 to 99% either neurons or astrocytes. The 3D spheroids are comprised of approximately 50:50 neurons to astrocytes ratio +1-10%. The methods of differentiating and forming 3 dimensional spheroids and functional testing with FLIPR optical techniques is described in copending patent application No. 62/532667. In the examples in this invention we use a disease model cell line which are known to carry genes responsible for Rett syndrome.
In the present disclosure both Wild Type (WT) and Rett Disease (RTT) cortical brain human tissue spheroids were prepared for the purpose of high throughput screening to identify therapeutic compounds that can modulate the brain activity in an attempt to revert or rescue the disease state back to near normal activity or homeostasis. For example, the cell lines employed (control or “WT” and disease “RTT”) may be from a family without and with the Rett disease phenotype.
The method disclosed herein may, in one embodiment, include manufacturing 3D spheroids in 384 well round bottom microtiter plates, see, e.g. U.S. patent application No. 62/532,667, the disclosure of which is incorporated herein. […] In the present disclosure, 6 to 14 weeks of maturation is a maturation range for testing, e.g., 8 to 10 weeks of maturation.
The oscillations being measured are from calcium flux moving into and out of the cells at ambient conditions. The oscillations are spontaneous and not generated by an external source. The measurements are conducted in real time and the data captured by using a technique called FLIPR that is well known in the prior art. […] When analyzing the data, it is important to understand that multiple factors contribute to the signal being recorded by the FLIPR software. Therefore, in the present disclosure 7 parameters are recorded to determine if the data generated from the spheroid is meaningful. The parameters measured are, e.g., peak count, peak width, average peak spacing, peak spacing standard deviation, peak decay time, peak rise time, and/or peak amplitude.
In the present disclosure, the SMART library that contained 298 compounds was used on both WT and RTT matured spheroids over several weeks and the FLIPR data collected and analyzed for potential therapeutic efficacy. The SMART (Selected Molecular Agents for Rett Therapy) library of compounds is well vetted by modern day bioinformatics methods, tightly focused on Rett syndrome and its biological causes. The library is currently housed at the University of Illinois-Chicago. […] With the goals in mind to save both time and resources and accelerate drug discovery for Rett syndrome, the compounds in the SMART library are readily available to investigators working on Rett syndrome research.

| Compound | outcome of the SMART library screen (multivariant analysis) |
| --- | --- |
| Fc1ccc([C@@H]2CCNC[C@H]2COc2ccc3c(c2)OCO3)cc1 [Paroxetine] | therapeutics of interest |
| Pirlindole Mesylate | therapeutics of interest |
| Cl.Cl.OCCOCCN1CCN(C(c2ccccc2)c2ccc(Cl)cc2)CC1 (centres unmarked) [Hydroxyzine Dichloride] | therapeutics of interest |
| CCCC(CCC)C(=O)O [Valproate DPA] | therapeutics of interest |
| C#CCN(C)[C@H](C)Cc1ccccc1 [Selegiline Hydrochloride] | therapeutics of interest |
